Data as given in BindingDB's records for US10793528.

Protein sequences, listed by entry. Tags and fused reporters are not part of them. Lines headed by an entry give the natural chain unless they say otherwise; changes in a name come on top.
UniProt P41146: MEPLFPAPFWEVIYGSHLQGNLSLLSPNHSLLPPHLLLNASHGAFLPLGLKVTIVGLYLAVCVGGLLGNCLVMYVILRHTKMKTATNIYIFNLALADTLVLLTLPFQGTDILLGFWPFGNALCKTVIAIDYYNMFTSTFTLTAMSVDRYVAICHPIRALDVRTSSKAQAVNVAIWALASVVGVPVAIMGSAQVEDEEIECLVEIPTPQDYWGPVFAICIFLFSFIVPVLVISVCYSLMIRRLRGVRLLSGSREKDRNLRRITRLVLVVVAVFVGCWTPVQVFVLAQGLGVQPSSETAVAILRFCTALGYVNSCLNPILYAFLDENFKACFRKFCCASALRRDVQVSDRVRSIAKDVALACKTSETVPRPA
UniProt P35372, whole entry, looked up: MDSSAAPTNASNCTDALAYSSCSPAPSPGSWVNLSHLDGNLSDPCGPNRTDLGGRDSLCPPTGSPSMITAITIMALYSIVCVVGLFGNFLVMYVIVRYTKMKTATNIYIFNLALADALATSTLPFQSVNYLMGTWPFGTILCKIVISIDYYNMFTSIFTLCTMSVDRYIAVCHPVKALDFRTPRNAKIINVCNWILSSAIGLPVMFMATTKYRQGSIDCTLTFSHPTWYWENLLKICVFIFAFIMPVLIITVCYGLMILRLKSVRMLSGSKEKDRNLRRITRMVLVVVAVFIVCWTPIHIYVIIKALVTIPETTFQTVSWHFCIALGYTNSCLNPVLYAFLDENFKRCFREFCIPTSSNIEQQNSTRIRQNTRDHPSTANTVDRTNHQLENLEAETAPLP

What follows are compounds tested against Nociceptin receptor (Homo sapiens, UniProt P41146) (assay: Receptor Binding Assay).
Protocol: NOP:The hNOP receptor binding assay was performed as homogeneous SPA-assay (scintillation proximity assay) using the assay buffer 50 mM TRIS-HCl. 10 mM MgCl2. 1 mM EDTA (pH 7.4). The final assay volume (250 μl/well) included 0.5 nM of [leucyl-3H]nociceptin as ligand (PerkinElmer Life Sciences. Inc. Boston. Mass. USA). and either test compound in

Compound | Ki
CN[C@]1(c2ccccc2)CC[C@]2(CC1)CN(CC(C)(C)C(N)=O)C(=O)N2CC1(O)CCC1 | 285 nM
COc1ccc(NC(=O)CCN2C[C@]3(CC[C@](c4ccccc4)(N(C)C)CC3)N(CC3CCC3)C2=O)nn1 | 1.9 nM
CN(C)[C@]1(c2ccccc2)CC[C@]2(CC1)CN(CCC(=O)Nc1ccc(S(C)(=O)=O)cn1)C(=O)N2CC1CCC1 | 2.1 nM
COc1cnccc1NC(=O)CCN1C[C@]2(CC[C@](c3ccccc3)(N(C)C)CC2)N(CC2CCC2)C1=O | 1.2 nM
CN(C)[C@]1(c2ccccc2)CC[C@]2(CC1)CN(CCC(=O)Nc1cncnc1)C(=O)N2CC1(O)CCC1 | 3.6 nM
CN(C)[C@]1(c2ccccc2)CC[C@]2(CC1)CN(CCC(=O)N1CCn3ncnc3C1)C(=O)N2CC1CCC1 | 3 nM
COCCNC(=O)CCN1C[C@]2(CC[C@](c3ccccc3)(N(C)C)CC2)N(CC2(O)CCC2)C1=O | 16.5 nM
COCCCN1C(=O)N(CCC(=O)NCCS(C)(=O)=O)C[C@]12CC[C@](c1ccccc1)(N(C)C)CC2 | 130 nM
COc1cc(NC(=O)CCN2C[C@]3(CC[C@](c4ccccc4)(N(C)C)CC3)N(CC3CCC3)C2=O)ccn1 | 2.6 nM
CN(C)[C@]1(c2ccccc2)CC[C@]2(CC1)CN(CC(C)(C)C(N)=O)C(=O)N2CC1(C#N)CCC1 | 0.5 nM
CN(C)[C@]1(c2ccccc2)CC[C@]2(CC1)CN(CCC(=O)Nc1nccc(O)n1)C(=O)N2CC1(O)CCC1 | 9.4 nM
CN(C)[C@]1(c2ccccc2)CC[C@]2(CC1)CN(CC(C)(C)C(=O)N1CCOCC1)C(=O)N2CC1(O)CCC1 | 7 nM
CN(C)[C@]1(c2ccccc2)CC[C@]2(CC1)CN(CCC(=O)N1CCCC(O)C1)C(=O)N2CC1CCC1 (some centres not stated) | 2.6 nM
CN(C)[C@]1(c2ccccc2)CC[C@]2(CC1)CN(CCC(=O)Nc1cnc(C#N)nc1)C(=O)N2CC1(O)CCC1 | 3.1 nM
CNC1(c2ccccc2)CCC2(CC1)CN(CC(C)(C)C(N)=O)C(=O)N2CC1CCC1 (configuration not stated) | 17.5 nM
CN(C)[C@]1(c2ccccc2)CC[C@]2(CC1)CN(CCC(=O)NCc1ncco1)C(=O)N2CC1CCC1 | 3.6 nM

Compound | Ki
COc1ccc(NC(=O)CCN2C[C@]3(CC[C@](c4ccccc4)(N(C)C)CC3)N(CC3CCC3)C2=O)nc1 | 1 nM
COc1ccnc(NC(=O)CCN2C[C@]3(CC[C@](c4ccccc4)(N(C)C)CC3)N(CC3(O)CCC3)C2=O)n1 | 22.5 nM
COc1ccc(NC(=O)CCN2C[C@]3(CC[C@](c4ccccc4)(N(C)C)CC3)N(CC3CCC3)C2=O)cn1 | 1.1 nM
CN(C)[C@]1(c2ccccc2)CC[C@]2(CC1)CN(CCC(N)=O)C(=O)N2CC1(O)CCC1 | 12.2 nM
CN(C)[C@]1(c2ccccc2)CC[C@]2(CC1)CN(CC(C)(C)C(=O)NCC(N)=O)C(=O)N2CC1CCC1 | 7.4 nM
CN(C)C(=O)CCNC(=O)CCN1C[C@]2(CC[C@](c3ccccc3)(N(C)C)CC2)N(CC2CCC2)C1=O | 8.1 nM
CN(C)[C@]1(c2ccccc2)CC[C@]2(CC1)CN(CCC(=O)Nc1ccc(S(C)(=O)=O)nc1)C(=O)N2CC1CCC1 | 1.8 nM
CN(C)[C@]1(c2ccccc2)CC[C@]2(CC1)CN(CCC(=O)Nc1cccnn1)C(=O)N2CC1(O)CCC1 | 4 nM
CCN[C@]1(c2ccccc2)CC[C@]2(CC1)CN(CC(C)(C)C(N)=O)C(=O)N2 | 1 nM
CNC(=O)CCN1C[C@]2(CC[C@](c3ccccc3)(N(C)C)CC2)N(CC2CCC2)C1=O | 1.5 nM
COc1ccnc(NC(=O)CCN2C[C@]3(CC[C@](c4ccccc4)(N(C)C)CC3)N(CC3CCC3)C2=O)c1 | 2.6 nM
CN[C@]1(c2ccccc2)CC[C@]2(CC1)CN(CC(C)(C)C(=O)NCC(N)=O)C(=O)N2CC1CCC1 | 75.5 nM
CN(C)[C@]1(c2ccccc2)CC[C@]2(CC1)CN(CC(C)(C)C(N)=O)C(=O)N2CC1CCC1 | 1 nM
COc1cncc(NC(=O)CCN2C[C@]3(CC[C@](c4ccccc4)(N(C)C)CC3)N(CC3CCC3)C2=O)n1 | 2.2 nM
CN(C)[C@]1(c2ccccc2)CC[C@]2(CC1)CN(CCC(=O)Nc1cccnc1)C(=O)N2CC1(O)CCC1 | 4.2 nM

The compounds below were run against Mu-type opioid receptor (Homo sapiens, UniProt P35372) (assay: Receptor Binding Assay).
Protocol: MOP: The hMOP receptor binding assay was performed as homogeneous SPA-assay (scintillation proximity assay) using the assay buffer 50 mM TRIS-HCl (pH 7.4) supplemented with 0.052 mg/ml bovine serum albumin (Sigma-Aldrich Co. St. Louis. Mo.). The final assay volume (250 μl/well) included 1 nM of [N-allyl-2.3-3H]naloxone as ligand (PerkinElmer Lif

Compound | Ki
COCCNC(=O)CCN1C[C@]2(CC[C@](c3ccccc3)(N(C)C)CC2)N(CC2(O)CCC2)C1=O | 58.5 nM
COCCCN1C(=O)N(CCC(=O)NCCS(C)(=O)=O)C[C@]12CC[C@](c1ccccc1)(N(C)C)CC2 | 130 nM
CN(C)[C@]1(c2ccccc2)CC[C@]2(CC1)CN(CC(C)(C)C(=O)N1CCOCC1)C(=O)N2CC1(O)CCC1 | 670 nM
CNC(=O)CCN1C[C@]2(CC[C@](c3ccccc3)(N(C)CC(C)C)CC2)N(CC2CCC2)C1=O | 4150 nM
CN(C)[C@]1(c2ccccc2)CC[C@]2(CC1)CN(CCC(=O)NCC1(O)CCC1)C(=O)N2CC1CCC1 | 1.7 nM
COc1ccc(NC(=O)CCN2C[C@]3(CC[C@](c4ccccc4)(N(C)C)CC3)N(CC3CCC3)C2=O)cn1 | 10 nM
COCCCN1C(=O)N(CCC(=O)NC(C)(C)C(N)=O)C[C@]12CC[C@](c1ccccc1)(N(C)C)CC2 | 175 nM
CN(C)C(=O)CCNC(=O)CCN1C[C@]2(CC[C@](c3ccccc3)(N(C)C)CC2)N(CC2CCC2)C1=O | 47.5 nM
CN(C)[C@]1(c2ccccc2)CC[C@]2(CC1)CN(CCC(=O)NCc1cnco1)C(=O)N2CC1CCC1 | 28 nM
CNC(=O)CCN1C[C@]2(CC[C@](c3ccccc3)(N(C)C)CC2)N(CC2CCC2)C1=O | 11.3 nM
COc1ccnc(NC(=O)CCN2C[C@]3(CC[C@](c4ccccc4)(N(C)C)CC3)N(CC3CCC3)C2=O)c1 | 51.5 nM
